From PubChem BioAssay AID2013 (Sanford-Burnham Center for Chemical Genomics, 2009)
Only a part is listed here, and it is no random draw. Results with a measured potency or affinity are listed apart. Some of these compounds have results that are not shown, active ones among them. The source made the active and inactive calls.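 How the source made its calls: active means spots per cell inhibited over 60%, with over 100 cells counted and total cytoplasm intensity under 500,000; inconclusive means wells with under 100 cells, flagged as likely toxic; inactive means the rest.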

Amino acid sequences for entries named in this document (tags omitted).
UniProt Q9Y2T6, whole entry: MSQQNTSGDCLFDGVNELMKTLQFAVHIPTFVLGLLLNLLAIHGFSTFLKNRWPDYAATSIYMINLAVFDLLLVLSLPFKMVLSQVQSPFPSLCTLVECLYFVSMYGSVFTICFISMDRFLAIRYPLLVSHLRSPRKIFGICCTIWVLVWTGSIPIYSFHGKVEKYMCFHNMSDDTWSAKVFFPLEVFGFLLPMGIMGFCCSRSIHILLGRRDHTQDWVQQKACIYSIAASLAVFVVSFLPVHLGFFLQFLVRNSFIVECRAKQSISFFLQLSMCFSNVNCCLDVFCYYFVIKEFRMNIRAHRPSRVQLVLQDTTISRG

Each molecule was assayed against G-protein coupled receptor 55 (Homo sapiens) (UniProt Q9Y2T6) (assay: GPR55 antagonists blocking LPI-driven arrestin recruitment, primary screen, imaging, U2OS, beta-arrestin-GFP, LPI agonist (AID 2013;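 further: U2OS cells stably carrying GPR55 and arrestin-GFP stimulated by 5 µM LPI near EC80; imaged beta-arrestin-GFP aggregate spots per cell after agonist stimulation; plate controls were LPI-stimulated DMSO wells for no effect and DMSO wells without LPI for full effect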)). Conditions: U2OS GPR55 beta-arrestin-GFP translocation imaging, LPI antagonism; at 10 µM; active compounds read high.

| SMILES | inhibition |
| --- | --- |
| O=C(NCC1(N2CCCCC2)CCCCC1)c1cc([N+](=O)[O-])ccc1Cl | inactive: 5.3% |
| CN1[C@@H]2CC[C@H]1CC(OC(=O)C(O)(c1ccccc1)c1ccccc1)C2 (some centres undefined) | inactive: 4.1% |
| COc1cc(SC)ccc1C(=O)NCC1(N(C)C)CCCCC1 | inactive: 5.1% |
| CCN(CC)CC(C)C(C)OC(=O)C(O)(c1ccccc1)c1ccccc1 (centres undefined) | inactive: -1.5% |
| CC(C)N1C(=O)CC2(CCN(CCOC(=O)C(O)(c3ccccc3)c3ccccc3)CC2)C1=O | inactive: 2% |
| Cc1ccc(C(=O)NCC2(N3CCCCC3)CCCCC2)cc1 | inactive: 9.8% |
| CN(C)C1CCCC1OC(=O)C(O)(c1ccccc1)c1ccccc1 (centres undefined) | inactive: 7.3% |
| CN(C)c1ccc(C(=O)NCC2(N(C)C)CCCCC2)cc1 | inactive: 8.8% |
| Cc1ccccc1C(=O)NCC1(N2CCCCC2)CCCCC1 | inactive: 12.8% |
| O=C(NCC1(N2CCCCC2)CCCCC1)c1cc(F)c(F)cc1Cl | inactive: 13.6% |
| C=CCN1CCN(CCOC(=O)C(O)(c2ccccc2)c2ccccc2)CC1 | inactive: 5.8% |
| COc1ccc(C(=O)NCC2(N(C)C)CCCCC2)cc1 | inactive: 1.2% |
| O=C(NCC1(N2CCCCC2)CCCCC1)c1cccc(Br)c1 | inactive: 2.8% |
| Cc1cc(C(=O)NCC2(N3CCCCC3)CCCCC2)ccc1[N+](=O)[O-] | inactive: 1.8% |
| CCN1CCCC(OC(=O)C2(O)c3ccccc3C=Cc3ccccc32)C1 (centres undefined) | inactive: -0.1% |
| CN(C)C1(CNC(=O)c2ccc(Br)cc2)CCCCC1 | inactive: 0.9% |
| COc1cc(C(=O)NCC2(N(C)C)CCCCC2)c([N+](=O)[O-])cc1OC | inactive: 3% |
| COc1ccc(Cl)cc1C(=O)NCC1(N(C)C)CCCCC1 | inactive: 2.9% |
| COc1cccc(C(=O)NCC2(N3CCCCC3)CCCCC2)c1 | inactive: 4.7% |
| O=C(NCC1(N2CCCCC2)CCCCC1)c1cccc(Cl)c1 | inactive: 11.7% |
| O=C(OC1CN2CCC1CC2)C(CO)(c1ccccc1)c1ccccc1 (centres undefined) | inactive: 3.2% |
| COc1ccc(Br)c(C(=O)NCC2(N3CCCCC3)CCCCC2)c1 | inactive: 0.4% |
| CC(C)Oc1ccc(C(=O)NCC2(N(C)C)CCCCC2)cc1 | inactive: 4.4% |
| CN(C)c1cccc(C(=O)NCC2(N(C)C)CCCCC2)c1 | inactive: 8.5% |
